Data reported in patent publication US10925840B2, “Use of fenoterol and fenoterol analogues in the treatment of glioblastomas and astrocytomas” (priority 2010, dated 2021).

Target: human β2-AR (Homo sapiens (Human), UniProt P07550)
Settings: relative to (R,R)-3

## C[C@@H](Cc1ccc(N)cc1)NC[C@H](O)c1cc(O)cc(O)c1.O=C(O)/C=C/C(=O)O
  change of Kiβ2 relative to the (R,R)-3/β2-AR complex: 3 fold
